# According to ChEMBL document CHEMBL3727350, “Agents and methods for treating ischemic and other diseases” (2014):
# Sequences of proteins named here, by UniProt entry; tags and fusion partners are left off. A change or cut given only in a name is not applied to a line headed by its entry.
# UniProt Q923J1: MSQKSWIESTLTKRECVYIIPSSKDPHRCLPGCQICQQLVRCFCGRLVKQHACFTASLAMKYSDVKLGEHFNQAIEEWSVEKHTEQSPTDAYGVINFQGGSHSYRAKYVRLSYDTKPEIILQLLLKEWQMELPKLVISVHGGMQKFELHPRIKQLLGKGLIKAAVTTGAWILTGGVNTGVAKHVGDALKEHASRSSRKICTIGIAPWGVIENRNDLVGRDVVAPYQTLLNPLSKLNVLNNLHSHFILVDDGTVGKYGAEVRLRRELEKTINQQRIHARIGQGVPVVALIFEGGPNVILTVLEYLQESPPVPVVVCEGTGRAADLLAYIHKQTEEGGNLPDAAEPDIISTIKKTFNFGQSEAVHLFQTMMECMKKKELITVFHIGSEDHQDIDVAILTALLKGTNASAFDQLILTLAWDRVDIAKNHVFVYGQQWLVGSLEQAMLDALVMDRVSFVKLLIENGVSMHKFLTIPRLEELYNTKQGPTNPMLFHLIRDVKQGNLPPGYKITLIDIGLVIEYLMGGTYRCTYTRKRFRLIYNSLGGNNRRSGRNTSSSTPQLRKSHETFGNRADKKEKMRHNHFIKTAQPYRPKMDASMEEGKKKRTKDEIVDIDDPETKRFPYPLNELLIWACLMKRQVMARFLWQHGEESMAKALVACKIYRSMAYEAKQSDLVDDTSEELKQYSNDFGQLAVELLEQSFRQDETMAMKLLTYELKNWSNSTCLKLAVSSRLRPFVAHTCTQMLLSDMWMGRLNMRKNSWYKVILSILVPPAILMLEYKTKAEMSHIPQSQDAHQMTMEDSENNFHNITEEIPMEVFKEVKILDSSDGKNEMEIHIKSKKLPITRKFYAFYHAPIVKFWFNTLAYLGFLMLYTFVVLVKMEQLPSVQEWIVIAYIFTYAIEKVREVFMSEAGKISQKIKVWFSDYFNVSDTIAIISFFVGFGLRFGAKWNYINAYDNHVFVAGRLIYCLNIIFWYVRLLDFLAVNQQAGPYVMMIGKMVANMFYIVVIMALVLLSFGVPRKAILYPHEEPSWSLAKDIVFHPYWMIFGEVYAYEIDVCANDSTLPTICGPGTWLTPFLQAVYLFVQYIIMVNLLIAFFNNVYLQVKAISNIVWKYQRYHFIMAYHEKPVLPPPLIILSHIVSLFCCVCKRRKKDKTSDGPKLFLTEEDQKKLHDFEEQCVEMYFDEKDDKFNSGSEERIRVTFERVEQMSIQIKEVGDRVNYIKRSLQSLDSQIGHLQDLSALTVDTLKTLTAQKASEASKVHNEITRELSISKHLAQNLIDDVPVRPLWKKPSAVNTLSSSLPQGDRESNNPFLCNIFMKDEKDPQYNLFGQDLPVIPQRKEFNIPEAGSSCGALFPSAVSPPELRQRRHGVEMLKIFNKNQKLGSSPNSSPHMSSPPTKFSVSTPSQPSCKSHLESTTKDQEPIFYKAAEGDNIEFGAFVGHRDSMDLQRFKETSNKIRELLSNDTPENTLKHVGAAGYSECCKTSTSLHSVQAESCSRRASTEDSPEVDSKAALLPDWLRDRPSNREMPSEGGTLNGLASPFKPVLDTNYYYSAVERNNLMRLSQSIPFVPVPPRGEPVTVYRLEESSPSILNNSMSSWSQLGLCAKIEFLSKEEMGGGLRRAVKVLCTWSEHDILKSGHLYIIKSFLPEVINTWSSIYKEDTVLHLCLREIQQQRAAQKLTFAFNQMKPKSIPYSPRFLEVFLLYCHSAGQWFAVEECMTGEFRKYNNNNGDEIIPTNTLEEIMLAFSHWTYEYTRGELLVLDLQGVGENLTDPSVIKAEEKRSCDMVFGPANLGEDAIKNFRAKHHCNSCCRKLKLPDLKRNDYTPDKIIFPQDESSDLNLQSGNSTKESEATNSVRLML
# Molecular target: Transient receptor potential cation channel subfamily M member 7 (Mus musculus) (UniProt Q923J1)
# Experiment: Inhibition of Tet-induced Flag-tagged mouse TRPM7 expressed in HEK293 cells assessed as inhibition of channel-mediated cell death in presence of Mg2+ incubated for 24 to 48 hrs by propidium iodide uptake assay
# Format: cell-based
# Parameters: concentration or dose not given beside the values
row,SMILES,inhibition
1,O=C(O)c1cc(=O)cc(C(=O)O)[nH]1,Dose-dependent effect
2,CC[C@@H](C(=O)[C@@H](C)[C@@H](O)[C@H](C)CCc1ccc(C)c(O)c1C(=O)O)[C@H]1O[C@](CC)([C@H]2CC[C@](O)(CC)[C@H](C)O2)C[C@@H]1C,Active
3,COc1cccc2c1C(=O)c1c(O)c3c(c(O)c1C2=O)C[C@@](O)(C(=O)CO)C[C@@H]3O[C@H]1C[C@H](N)[C@H](O)[C@H](C)O1,Dose-dependent effect
4,O=C1c2c(O)ccc(O)c2C(=O)c2c(NCCNCCO)ccc(NCCNCCO)c21,Dose-dependent effect

# Activity calls are given as the source filed them. No cut-off for these calls is given here.
